This is an account of results in BindingDB's records for 30383374.

Chains of the proteins cited; added tags and fusions are not shown. Residues count along the entry.
UniProt P06276, 29-602 limits assumed: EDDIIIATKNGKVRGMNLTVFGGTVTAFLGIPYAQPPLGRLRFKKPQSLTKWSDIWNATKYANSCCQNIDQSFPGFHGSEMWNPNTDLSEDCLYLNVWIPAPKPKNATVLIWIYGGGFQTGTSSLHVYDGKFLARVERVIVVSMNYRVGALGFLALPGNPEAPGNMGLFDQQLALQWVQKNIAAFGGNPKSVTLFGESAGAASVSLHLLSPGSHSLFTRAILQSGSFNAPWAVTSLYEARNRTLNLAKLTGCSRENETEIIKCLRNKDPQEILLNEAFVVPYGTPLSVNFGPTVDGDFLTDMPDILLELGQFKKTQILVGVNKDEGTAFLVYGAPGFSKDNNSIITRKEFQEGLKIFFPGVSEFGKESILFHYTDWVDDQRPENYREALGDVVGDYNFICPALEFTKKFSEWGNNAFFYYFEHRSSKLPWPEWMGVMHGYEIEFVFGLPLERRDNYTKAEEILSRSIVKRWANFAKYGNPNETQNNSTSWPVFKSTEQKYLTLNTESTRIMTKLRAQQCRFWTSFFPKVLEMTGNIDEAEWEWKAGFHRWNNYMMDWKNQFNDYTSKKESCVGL

The target in this test is Cholinesterase (Homo sapiens, UniProt P06276). The test can be described thus: ASSAY_NAME: ChEMBL_1788970 (CHEMBL4260704) DESCRIPTION: Reversible inhibition of human plasma BChE using acetylthiocholine iodide as substrate by Ellman spectrophotometric method.
The term Ki denotes the equilibrium dissociation constant of an inhibitor or competing ligand from its target. As for `NC(=O)c1cc[n+](CCCC[n+]2cc(Cl)c(C=NO)c(Cl)c2)cc1`, the affinity, expressed as Ki, was 140 µM.
For `NC(=O)c1cc[n+](CCCC[n+]2ccc(C=NO)c(Cl)c2)cc1` the value was 265 µM; for `NC(=O)c1cc[n+](CCC[n+]2cc(Cl)c(C=NO)c(Cl)c2)cc1`, 195 µM; for `NC(=O)c1cc[n+](CC=CC[n+]2ccc(C=NO)c(Cl)c2)cc1`, 294 µM.
For `NC(=O)c1cc[n+](CCC[n+]2ccc(C=NO)c(Cl)c2)cc1` the value was 273 µM.
In the case of `NC(=O)c1cc[n+](CC=CC[n+]2cc(Cl)c(C=NO)c(Cl)c2)cc1` it was 187 µM.
